The structures appear in SMILES notation. The entries are a selection whose mix differs from that of the whole data set.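 Results are percent growth after 48 hours of single-concentration exposure. 100 means growth as in untreated cells, lower positive values show inhibition; negative values down to -100 show cell death.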 Active and inactive are the calls of the source. Rule for the calls: active = growth percent below 10; inactive = the rest.

This experiment deals with MDA-MB-468 breast. The experiment in a line: NCI-60 one-dose screen, 48 h (100 = growth as untreated, 0 = no growth, -100 = all killed). Conditions: 10 µM.
As to `Cc1ccc(Nc2c([N+](=O)[O-])cc([N+](=O)[O-])cc2[N+](=O)[O-])cc1`, the growth is inactive: 69.2%. For the molecule `CCN(CC)CCOC(=O)C(O)(c1ccccc1)c1cc(C)c(C)c(C)c1C` (stereo unspecified), the growth was inactive: 94.3%. As for `CCN(CC)CCS`, the figure is inactive: 95.8%. As to `CP(=O)(OCCCl)N(CCCl)CCCl` (stereo unspecified), the growth is inactive: 102%. For the molecule `O=[N+]([O-])OCC(O[N+](=O)[O-])C(CO[N+](=O)[O-])O[N+](=O)[O-]` (stereo unspecified), the growth was inactive: 108%. On to `O=[N+]([O-])c1cc([N+](=O)[O-])c(Nc2nnnn2CCO)c([N+](=O)[O-])c1`, for which the growth is inactive: 96.3%. For `COC(=O)C(O)(c1ccccc1)c1ccccc1`, the growth was inactive: 98.7%. Regarding `O=[N+]([O-])c1cc([N+](=O)[O-])c(Oc2ccccc2)c([N+](=O)[O-])c1`, the growth was inactive: 104%. In the case of `CN(C)Nc1c([N+](=O)[O-])cc([N+](=O)[O-])cc1[N+](=O)[O-]`, the growth is inactive: 81.2%. As for `O=[N+]([O-])c1ccc(Oc2c([N+](=O)[O-])cc([N+](=O)[O-])cc2[N+](=O)[O-])cc1`, the growth is inactive: 93.1%. As for `O=[N+]([O-])c1cc([N+](=O)[O-])c(NCCO)c([N+](=O)[O-])c1`, the figure is inactive: 79.7%; as for `O=[N+]([O-])c1cc([N+](=O)[O-])c(Nc2ccc(Cl)cc2)c([N+](=O)[O-])c1`, active: -6.01%. For the molecule `CCN(CC)CCOC(=O)C(O)(c1cc(C)cc(C)c1)c1cc(C)cc(C)c1`, the growth is inactive: 98.5%. As for `CCN(CC)CCOC(=O)C(O)(c1ccccc1)c1cc(C)cc(C)c1C` (stereo unspecified), the figure is inactive: 97%; as for `O=[N+]([O-])c1cc([N+](=O)[O-])c(O)c([N+](=O)[O-])c1.c1ccc(Cc2ccncc2)cc1`, inactive: 88.3%; as for `CN1CCN(CCOC(=O)C(O)(c2ccccc2)c2ccccc2)CC1`, inactive: 96.4%.

Source of the values: PubChem BioAssay (NCI).
